In experiment [1] the test system is histone H2A.Z Lysine 7 acetylation marker in U2OS cells. Put plainly: H2A.Z Lysine 7 Acetylation Biomarker Assay. Type of experiment: cell-based. The following applies: Homo sapiens, 24 h. The procedure: Compounds may be tested for their ability to inhibit the histone H2A.Z Lysine 7 acetylation marker in the following assay:
The cell line U2OS was seeded at a density of 3,000 cells per well in 384-well optical quality tissue culture plates in RPMI medium supplemented with 10% foetal bovine serum and 10 mM Hepes. The cells were allowed to adhere for 24 hours under standard culture conditions (37 degree Celsius, 5% CO2). At the end of this period the cells were washed with serum free medium. […] 2018, at 30 μM concentration. […]. After washing, a secondary antibody labelled with AlexaFluor 488 dye (ThermoFisher) and Hoechst 33342 (1 μg/mL, Life Technologies) were added for 2 hours incubation at room temperature. Plates were washed and read on a PerkinElmer Opera HCS high content imaging platform. Using a Columbus image analysis pipeline, individual nuclei were located by Hoechst 33342 stain and the acetylation level was calculated from the AlexaFluor 488-related intensity in the same area.

By UniProt entry, the sequences of proteins in these tests, tags left out. Chains listed by the source or under a name are the forms on record and can include a tag or linker. Residues count along the entry.
UniProt Q92794, other isoform, or with tags, fused parts or gaps: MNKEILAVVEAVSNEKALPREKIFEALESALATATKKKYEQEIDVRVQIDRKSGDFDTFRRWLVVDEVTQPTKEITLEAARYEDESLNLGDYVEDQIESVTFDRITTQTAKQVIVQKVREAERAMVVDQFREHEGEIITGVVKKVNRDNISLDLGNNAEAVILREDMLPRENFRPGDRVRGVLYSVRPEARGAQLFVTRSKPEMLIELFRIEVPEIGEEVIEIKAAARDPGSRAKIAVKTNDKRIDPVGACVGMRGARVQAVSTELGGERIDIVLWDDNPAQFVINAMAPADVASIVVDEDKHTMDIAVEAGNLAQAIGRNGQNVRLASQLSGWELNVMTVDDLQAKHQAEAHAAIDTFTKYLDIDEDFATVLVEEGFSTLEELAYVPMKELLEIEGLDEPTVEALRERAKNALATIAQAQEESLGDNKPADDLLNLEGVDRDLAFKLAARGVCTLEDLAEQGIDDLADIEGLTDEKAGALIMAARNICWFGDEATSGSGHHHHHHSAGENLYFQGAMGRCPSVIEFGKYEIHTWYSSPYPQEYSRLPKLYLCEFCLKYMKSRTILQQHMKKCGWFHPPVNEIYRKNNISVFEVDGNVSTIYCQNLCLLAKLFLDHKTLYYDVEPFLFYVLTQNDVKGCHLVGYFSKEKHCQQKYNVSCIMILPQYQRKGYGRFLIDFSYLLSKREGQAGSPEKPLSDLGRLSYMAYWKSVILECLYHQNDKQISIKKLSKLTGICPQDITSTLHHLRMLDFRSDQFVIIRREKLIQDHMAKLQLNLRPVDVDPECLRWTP
UniProt O95251, other isoform, or with tags, fused parts or gaps: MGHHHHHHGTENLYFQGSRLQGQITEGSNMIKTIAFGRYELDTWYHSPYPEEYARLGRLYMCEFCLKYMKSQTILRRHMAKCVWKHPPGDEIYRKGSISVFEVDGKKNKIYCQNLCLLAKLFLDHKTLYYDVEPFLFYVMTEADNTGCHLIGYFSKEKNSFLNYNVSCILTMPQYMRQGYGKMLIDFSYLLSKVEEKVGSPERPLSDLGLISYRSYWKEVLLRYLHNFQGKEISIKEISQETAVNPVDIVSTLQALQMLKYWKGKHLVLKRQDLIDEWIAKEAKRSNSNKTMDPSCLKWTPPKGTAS
UniProt Q92993, other isoform, or with tags, fused parts or gaps: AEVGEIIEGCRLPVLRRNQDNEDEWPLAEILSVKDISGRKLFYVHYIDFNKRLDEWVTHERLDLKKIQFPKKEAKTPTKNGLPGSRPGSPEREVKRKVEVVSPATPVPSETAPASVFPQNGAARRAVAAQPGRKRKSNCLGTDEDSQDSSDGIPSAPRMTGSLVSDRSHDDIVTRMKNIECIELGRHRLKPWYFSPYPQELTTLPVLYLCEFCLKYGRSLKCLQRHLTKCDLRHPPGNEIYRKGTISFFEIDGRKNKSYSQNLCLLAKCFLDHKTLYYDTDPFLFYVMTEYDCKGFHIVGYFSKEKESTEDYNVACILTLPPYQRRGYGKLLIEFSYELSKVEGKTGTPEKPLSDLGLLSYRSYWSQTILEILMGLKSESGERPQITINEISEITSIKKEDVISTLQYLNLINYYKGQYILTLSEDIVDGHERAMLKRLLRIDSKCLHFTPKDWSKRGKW
UniProt Q9H7Z6, 177-447: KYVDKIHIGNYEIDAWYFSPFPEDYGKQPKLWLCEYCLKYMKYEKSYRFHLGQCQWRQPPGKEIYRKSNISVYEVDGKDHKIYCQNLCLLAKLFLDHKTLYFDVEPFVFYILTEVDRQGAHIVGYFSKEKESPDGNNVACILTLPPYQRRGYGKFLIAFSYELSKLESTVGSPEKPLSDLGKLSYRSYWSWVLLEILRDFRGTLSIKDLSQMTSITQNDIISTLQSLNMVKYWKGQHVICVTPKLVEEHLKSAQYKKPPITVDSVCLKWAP

Experiment [2] has as its system acetylation of the histone H3 Lysine 14 marker in U2OS cells. Briefly: Histone H3 Lysine 14 Acetylation Biomarker Assay. Type of experiment: cell-based. The following applies: Homo sapiens, 24 h. The procedure: Compounds may be tested for their ability to inhibit acetylation of the histone H3 Lysine 14 marker in the following assay:
The cell line U2OS was seeded at a density of 3,000 cells per well in 384-well optical quality tissue culture plates in RPMI medium supplemented with 10% foetal bovine serum and 10 mM Hepes. The cells were allowed to adhere for 24 hours under standard culture conditions (37 degree Celsius, 5% CO2). At the end of this period the cells were washed with serum free medium. […] […]. After washing, a secondary antibody labelled with AlexaFluor 488 dye (ThermoFisher) and Hoechst 33342 (1 μg/mL, Life Technologies) were added for 2 hours incubation at room temperature. Plates were washed and read on a PerkinElmer Opera HCS high content imaging platform. Using a Columbus image analysis pipeline, individual nuclei were located by Hoechst 33342 stain and the acetylation level was calculated from the AlexaFluor 488-related intensity in the same area.

Experiment [3] deals with acetylation of the histone H3K23 marker in U2OS cells. Put plainly: Histone H3 Lysine 23 Acetylation Biomarker Assay. Type of experiment: cell-based. To be noted: Homo sapiens, 24 h. The procedure: Compounds may be tested for their ability to inhibit acetylation of the histone H3K23 marker in the following assay:
The cell line U2OS was seeded at a density of 9,000 cells per well in 96 well optical quality tissue culture plates in RPMI medium and 10% foetal bovine serum, and allowed to adhere for 24 hours under standard culture conditions (37 degree Celsius, 5% CO2). At the end of this period the medium was aspirated. […] After incubation for 24 hours, the cells were fixed with 3.7% formaldehyde in PBS for 20 minutes at room temperature, washed (5×5 minutes) with phosphate buffer saline containing 0.1% Tween 20 and blocked with Odyssey blocking buffer (LI-COR, Lincoln, NE) containing 0.1% TritonX100. Anti-H3K23ac specific antibody (Abcam ab177275) in Odyssey blocking buffer containing 0.1% Tween 20 was added and incubated for 16 hours at 4 degree Celsius. After washing (as above), a secondary antibody labelled with Alexa647 dye (LifeTechnologies) and Hoechst 33342 (1 μg/mL, SigmaAldrich) were added for 1 hour incubation. Plates were washed as previously and read on a PerkinElmer Phenix high content imaging platform. Using a Columbus image analysis pipeline, individual nuclei were located by Hoechst 33342 stain and the acetylation level was calculated from the Alexa647-related intensity in the same area.

Experiment [4] addresses MOZ-KAT6A (Homo sapiens (Human), UniProt Q92794). Briefly: Acetyltransferase biochemical assay (AlphaScreen), KAT6A. In general terms: Alpha assays give light when donor and acceptor beads are brought close together.
Experiment [5] has as its target HBO-KAT7 (Homo sapiens (Human), UniProt O95251). Put plainly: Acetyltransferase biochemical assay (AlphaScreen), KAT7.
For experiment [6], the target named is TIP60-KAT5 (Homo sapiens (Human), UniProt Q92993). Put plainly: Acetyltransferase biochemical assay (AlphaScreen), KAT5.
The target in experiment [7] is MOF-KAT8 (Homo sapiens (Human), UniProt Q9H7Z6). Briefly: biochemical.

Among the data in US20240277683A1, “COMPOUNDS” (CTXT PTY LTD, priority 2018, published 2024) are IC50 values, retold here.

pIC50: −log10 of the molar value. Like-named read-outs stand apart in the source and are kept apart here.

As to `COc1ccc(Br)cc1-c1cc(NS(=O)(=O)c2c(OC)cccc2OC)no1` [Example 1, N-(5-(5-Bromo-2-methoxyphenyl)isoxazol-3-yl)-2,6-dimethoxybenzenesulfonamide], the pIC50 – broadly, the negative decadic logarithm of the IC50, by convention in mol/L – in experiment [1] was 5.65; in experiment [2] it was 6.90; in experiment [3], 7.55.

As for `O=S(=O)(Nc1cc(-c2ccc(Br)cc2)on1)c1ccccc1` [Example 62, N-(5-(4-Bromophenyl)isoxazol-3-yl)benzenesulfonamide], the pIC50 in experiment [4] was 4.28.

In experiment [4] (MOZ-KAT6A, 1 μM AcCoA, histone H3.1), `O=S(=O)(Nc1noc(-c2ccccc2)n1)c1ccccc1F` [Example 68, 2-Fluoro-N-(5-phenyl-1,2,4-oxadiazol-3-yl)benzenesulfonamide] had a pIC50 of 4.03.

As to `COC(=O)c1ccc(OC)c(-c2cc(NS(=O)(=O)c3c(OC)cccc3OC)no2)c1` [Example 69, Methyl 3-(3-((2,6-dimethoxyphenyl)sulfonamido)isoxazol-5-yl)-4-methoxybenzoate], the pIC50 is 6.58 in experiment [5] and 6.07 in experiment [6].

Take `O=S(=O)(Nc1cc(-c2ccccc2Br)no1)c1ccccc1` [Example 79, N-(3-(2-bromophenyl)isoxazol-5-yl)benzenesulfonamide]: in experiment [4], the pIC50 is 4.55.

Regarding `COc1ccc(-c2ccccc2)cc1-c1cc(NS(=O)(=O)c2c(OC)cccc2OC)no1` [Example 84, 2,6-Dimethoxy-N-(5-(4-methoxy-[1,1′-biphenyl]-3-yl)isoxazol-3-yl)benzenesulfonamide], the pIC50 in experiment [1] is 5.50; in experiment [2] it was 6.06; in experiment [3], 6.19.

Regarding `COc1ccc(C#N)cc1-c1cc(NS(=O)(=O)c2c(OC)cccc2OC)no1` [Example 87, N-(5-(5-Cyano-2-methoxyphenyl)isoxazol-3-yl)-2,6-dimethoxybenzenesulfonamide], the pIC50 in experiment [5] was 5.27; in experiment [7], 4.12; in experiment [6] it was 4.72.
